# ChEMBL document CHEMBL4680094, “Insights of a Lead Optimization Study and Biological Evaluation of Novel 4-Hydroxytamoxifen Analogs as Estrogen-Related Receptor γ (ERRγ) Inverse Agonists” (J Med Chem, 2016)
# Amino acid sequences for entries named in this document (tags omitted). A change or cut given only in a name is not applied to a line headed by its entry.
# UniProt Q12809: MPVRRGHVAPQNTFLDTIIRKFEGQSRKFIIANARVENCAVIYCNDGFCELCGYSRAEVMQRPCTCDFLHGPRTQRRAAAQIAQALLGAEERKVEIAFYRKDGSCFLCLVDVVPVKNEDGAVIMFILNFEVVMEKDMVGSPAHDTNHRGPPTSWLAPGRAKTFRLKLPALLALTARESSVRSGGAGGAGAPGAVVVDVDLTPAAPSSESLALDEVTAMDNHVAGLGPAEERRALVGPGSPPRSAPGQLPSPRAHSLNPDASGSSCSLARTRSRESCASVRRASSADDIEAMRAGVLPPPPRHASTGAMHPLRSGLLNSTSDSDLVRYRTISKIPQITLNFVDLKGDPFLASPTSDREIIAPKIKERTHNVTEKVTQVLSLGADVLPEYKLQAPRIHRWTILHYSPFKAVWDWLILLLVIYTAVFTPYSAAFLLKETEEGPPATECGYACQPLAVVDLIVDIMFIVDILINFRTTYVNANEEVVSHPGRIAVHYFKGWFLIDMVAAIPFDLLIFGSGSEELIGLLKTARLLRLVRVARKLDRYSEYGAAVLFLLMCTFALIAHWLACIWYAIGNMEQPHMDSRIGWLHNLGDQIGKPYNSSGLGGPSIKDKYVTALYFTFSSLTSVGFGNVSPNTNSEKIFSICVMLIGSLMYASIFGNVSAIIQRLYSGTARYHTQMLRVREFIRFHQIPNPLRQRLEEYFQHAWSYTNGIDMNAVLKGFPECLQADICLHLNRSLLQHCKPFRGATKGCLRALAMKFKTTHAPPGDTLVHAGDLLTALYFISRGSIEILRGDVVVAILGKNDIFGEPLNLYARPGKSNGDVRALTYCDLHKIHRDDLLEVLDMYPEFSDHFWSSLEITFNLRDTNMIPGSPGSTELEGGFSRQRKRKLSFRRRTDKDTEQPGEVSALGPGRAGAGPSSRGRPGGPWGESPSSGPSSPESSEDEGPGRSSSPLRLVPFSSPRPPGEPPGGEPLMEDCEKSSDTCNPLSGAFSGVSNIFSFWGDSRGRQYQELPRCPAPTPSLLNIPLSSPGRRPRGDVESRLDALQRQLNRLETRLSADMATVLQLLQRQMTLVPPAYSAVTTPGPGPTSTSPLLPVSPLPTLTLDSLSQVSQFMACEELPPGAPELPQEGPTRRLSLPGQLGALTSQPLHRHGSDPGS
# pIC50: −log10 of the molar value.
# Key:
# [1] = biological target: T1, Steroid hormone receptor ERR2 (Homo sapiens, UniProt O95718); test: Binding affinity to GST-tagged ERRbeta LBD (unknown origin) using fluorescein PGC1alpha as coactivator incubated for 1 hr by LanthaScreen TR-FRET co-regulator assay
# T1 sequence (O95718 whole entry): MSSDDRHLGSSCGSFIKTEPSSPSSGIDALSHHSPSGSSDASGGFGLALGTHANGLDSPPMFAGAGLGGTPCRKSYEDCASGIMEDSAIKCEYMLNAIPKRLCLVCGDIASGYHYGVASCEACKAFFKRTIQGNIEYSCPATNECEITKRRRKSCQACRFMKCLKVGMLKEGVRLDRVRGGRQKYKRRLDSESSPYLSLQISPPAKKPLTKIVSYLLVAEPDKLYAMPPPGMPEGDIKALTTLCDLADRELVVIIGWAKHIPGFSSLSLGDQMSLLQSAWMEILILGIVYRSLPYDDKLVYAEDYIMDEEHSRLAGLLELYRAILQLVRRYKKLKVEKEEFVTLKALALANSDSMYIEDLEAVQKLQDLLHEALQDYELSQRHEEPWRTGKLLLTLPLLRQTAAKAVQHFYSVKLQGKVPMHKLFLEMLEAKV
# [2] = biological target: Voltage-gated inwardly rectifying potassium channel KCNH2 (Homo sapiens, UniProt Q12809); test: Inhibition of human ERG measured after 4 hrs by fluorescence polarization assay
structure (smiles),measurement,setting,value
CN(C)CCOc1ccc(/C(=C(/CCCO)c2ccccc2)c2ccc(O)cc2)cc1,pIC50,[1],< 5.00
same,pIC50,[2],< 4.52
